Like-named read-outs stand apart in the source and are kept apart here.
What was measured:
Format in all cases: cell-based
EP4 = EP4 (Homo sapiens (Human), UniProt P35408); test: hEP4 cAMP assay (BT549 breast cancer cells, HTRF cAMP)
EP2 = EP2 (Homo sapiens (Human), UniProt P43116); test: hEP2 cAMP assay (SF295 glioblastoma cells, HTRF cAMP)
PTGER2 (EP2) = PTGER2 (EP2) (Homo sapiens (Human), UniProt P43116); test: hEP2 b-arrestin assay (PathHunter HEK 293 PTGER2 b-arrestin cells); settings: read-out: hEP2 b-arr IC50; antagonistic activity, beta-arrestin assay; tested form: ammonium salt
[1] = read-out: hEP4 cAMP IC50, antagonistic activity, PGE2 6 nM, tested form: ammonium salt
[2] = read-out: hEP2 cAMP IC50, antagonistic activity, tested form: ammonium salt

By UniProt entry, the sequences of proteins in these tests, tags left out.
UniProt P35408, whole entry: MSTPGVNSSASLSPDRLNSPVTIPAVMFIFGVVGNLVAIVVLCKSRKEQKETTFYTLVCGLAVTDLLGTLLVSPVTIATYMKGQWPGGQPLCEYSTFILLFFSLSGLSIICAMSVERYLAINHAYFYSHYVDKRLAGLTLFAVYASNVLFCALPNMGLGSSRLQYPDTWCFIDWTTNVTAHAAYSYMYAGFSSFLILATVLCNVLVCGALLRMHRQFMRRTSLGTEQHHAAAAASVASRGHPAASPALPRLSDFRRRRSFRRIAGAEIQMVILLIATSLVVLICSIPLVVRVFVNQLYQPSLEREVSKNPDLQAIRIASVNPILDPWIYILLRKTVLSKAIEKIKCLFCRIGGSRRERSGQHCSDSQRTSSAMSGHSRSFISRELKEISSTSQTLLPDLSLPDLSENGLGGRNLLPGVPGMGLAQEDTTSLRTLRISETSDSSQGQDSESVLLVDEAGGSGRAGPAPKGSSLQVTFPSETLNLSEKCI
UniProt P43116, whole entry: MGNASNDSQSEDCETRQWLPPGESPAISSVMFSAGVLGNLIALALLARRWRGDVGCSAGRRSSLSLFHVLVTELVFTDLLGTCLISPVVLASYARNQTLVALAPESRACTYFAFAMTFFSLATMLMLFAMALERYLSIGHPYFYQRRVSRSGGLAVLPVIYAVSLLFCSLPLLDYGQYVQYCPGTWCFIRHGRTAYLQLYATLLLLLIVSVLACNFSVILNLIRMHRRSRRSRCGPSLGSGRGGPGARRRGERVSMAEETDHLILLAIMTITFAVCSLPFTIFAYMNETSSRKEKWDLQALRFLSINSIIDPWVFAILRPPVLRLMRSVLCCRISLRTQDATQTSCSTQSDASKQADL

IC50 (EP4; read-out: hEP4 cAMP IC50, antagonistic activity, PGE2 6 nM)	IC50 (EP2; read-out: hEP2 cAMP IC50, antagonistic activity)	IC50 (PTGER2 (EP2))	IC50 (EP4; [1])	IC50 (EP2; [2])	Structure (SMILES)
0.295 µM	0.458 µM	–	–	–	O=C(O)c1c[nH]c2cc(-c3cc(NCCc4ccc5sccc5c4)ncn3)ccc12
–	–	0.501 µM	0.751 µM	0.233 µM	CCOc1cc(-c2cc(NCCc3ccc4occc4c3)ncn2)ccc1C(=O)O
–	–	0.047 µM	0.022 µM	0.045 µM	CCOc1cc(-c2cc(NCCc3ccc4ccoc4c3)ncn2)sc1C(=O)O
–	–	–	0.54 µM	0.255 µM	CCOc1cc(-c2cc(NCCc3ccc4ccoc4c3)ncn2)ccc1C(=O)O
–	–	0.212 µM	0.373 µM	0.186 µM	O=C(O)c1ccc(-c2cc(NCCc3ccc4ccoc4c3)ncn2)cc1OC1CCC1
–	–	0.061 µM	0.024 µM	0.052 µM	CCOc1cc(-c2cc(NCCc3ccc4occc4c3)ncn2)sc1C(=O)O
–	–	0.168 µM	0.351 µM	0.193 µM	O=C(O)c1ccc(-c2cc(NCCc3ccc4occc4c3)ncn2)cc1OC1CCC1
